Only a part of the results on these compounds is given; other tests are left out.
Tested on: GABAA receptor
Experiment: […]-TBPS radioligand displacement, full dose-response; supported by […]-TBOB displacement and reduced GABA-evoked currents in BLA neurons

Compound: O=[N+]([O-])N1CN([N+](=O)[O-])CN([N+](=O)[O-])C1
- Ki: 21.1 µM
